Curated experimental data: properties

From the experimental data distributed with OPERA 2.9.

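The numbers are reported measurements, compiled and curated for the OPERA QSAR suite. One number stands for a compound and property, with no spread given. How each value was measured is not recorded, so precision varies. Where a salt, mixture or single isomer is drawn, the source does not say that exactly this form was tested. Unmarked limits or estimates from the upstream databases cannot be ruled out.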

Melting points are in °C.
The octanol-water partition coefficient is given as log10; larger values mean a more lipophilic compound.
Solubility in water is on a log10 molar scale (set defined at 25 °C).
Vapor pressure is log10 of mmHg; the set covers 15 to 30 °C, mostly 20 to 25 °C.
Henry's law constant (air-water partitioning) is log10 of atm·m3/mol, nominally at 25 °C.
fu is the fraction unbound in human plasma, from 0 to 1.
Clint is human hepatic intrinsic clearance in µL/min per million cells; 0 means that no clearance was seen.

- C=S(=C)(C)O[C@@H]1CC(C(=O)OCC)=C[C@H]2OC(C)(C)O[C@H]21: MP 102 °C; logP (octanol/water) 2.2; log S -3.053 (log10 mol/L); vapor pressure -6.164 (log10 mmHg)
- CC(NC(=O)C(N)CC(=O)O)C(=O)NC1C(C)(C)SC1(C)C.CC(NC(=O)C(N)CC(=O)O)C(=O)NC1C(C)(C)SC1(C)C.O.O.O.O.O (stereo not drawn) [Alitame]: MP 100 °C; log S -0.763 (log10 mol/L)
- CCOc1ccc2c(c1)C(C)=CC(C)(C)N2 [Ethoxyquin]: logP (octanol/water) 3.19; log S -3.561 (log10 mol/L); log H -6.359 (log10 atm·m3/mol); intrinsic clearance 15.16 µL/min/10^6 cells
- CO[C@@H]1C=CO[C@]2(C)Oc3c(C)c(O)c4c(c3C2=O)C(=N)C(N)=C(NC(=O)C(C)=CC=C[C@@H](C)[C@@H](O)[C@H](C)[C@H](O)[C@H](C)[C@@H](OC(C)=O)[C@H]1C)C4=O: MP 155 °C; logP (octanol/water) 3.8; log S -4.598 (log10 mol/L)
- CC(=O)Nc1ccc(S(N)(=O)=O)cc1 [4'-Sulfamylacetanilide]: log S -1.61 (log10 mol/L); vapor pressure -7.094 (log10 mmHg)
- CCCCCCCCCCCCCCCCOC(=O)C(CC)CCCC (stereo not drawn) [Hexanoic acid, 2-ethyl-, hexadecyl ester]: MP -2 °C; logP (octanol/water) 6.15; log S -6.868 (log10 mol/L)
- Cc1ccc(Cl)c(Nc2ccccc2C(=O)O)c1Cl [Meclofenamic acid]: logP (octanol/water) 5; log S -4.908 (log10 mol/L)
- CC(=O)OCC(C)(C)C=O [2,2-Dimethyl-3-oxopropyl acetate]: MP -29 °C; logP (octanol/water) 1.36; vapor pressure -0.029 (log10 mmHg)
- CCCC1CCC(c2ccc(-c3cc(F)c(F)c(F)c3)cc2)CC1 (stereo not drawn): MP 38.3 °C; log S -6.92 (log10 mol/L); vapor pressure -5.791 (log10 mmHg)
- C=CCCCCCCCCCCCCCC [1-Hexadecene]: logP (octanol/water) 8.063; log S -8.471 (log10 mol/L)
- CCCCC(CC)COC(=O)CS (stereo not drawn) [2-Ethylhexyl thioglycolate]: logP (octanol/water) 4.7; log S -4.635 (log10 mol/L); vapor pressure -1.657 (log10 mmHg)
- O=C1C(N(CO)C(=O)NCO)N(CO)C(=O)N1CO (stereo not drawn) [Diazolidinyl urea]: MP 157.8 °C; vapor pressure -10.2 (log10 mmHg)
- C[C@]12CC[C@@H]3c4ccc(OS(=O)(=O)O)cc4CC[C@H]3[C@@H]1CC[C@@H]2O [17-Hydroxyestra-1(10),2,4-trien-3-yl hydrogen sulfate]: MP 178.5 °C; logP (octanol/water) 2.936; log S -4.991 (log10 mol/L)
- Cc1ccc(N(C)C)cc1 [N,N,4-Trimethylaniline]: log S -2.473 (log10 mol/L); fu 0.05498
- CC/C=C(\C)C(=O)O [2-Pentenoic acid, 2-methyl-, (2E)-]: logP (octanol/water) 1.9; vapor pressure -1.913 (log10 mmHg)
- CO[C@]1(C)CC[C@@]23C[C@@H]1C(C)(C)[C@@H]2CC[C@H]3C (stereo in doubt): logP (octanol/water) 5.1; log S -4.74 (log10 mol/L); vapor pressure -2.426 (log10 mmHg)
- F[P-](F)(F)(F)(F)F.F[P-](F)(F)(F)(F)F.c1ccc([S+](c2ccccc2)c2ccc(Sc3ccc([S+](c4ccccc4)c4ccccc4)cc3)cc2)cc1: MP 237.5 °C; logP (octanol/water) 1; log S -4.059 (log10 mol/L)
- NCCCn1ccnc1 [1H-Imidazole-1-propanamine]: logP (octanol/water) -0.6; vapor pressure -3.046 (log10 mmHg)

The last 3 entries again:

* CO[C@]1(C)CC[C@@]23C[C@@H]1C(C)(C)[C@@H]2CC[C@H]3C (stereo in doubt): logP (octanol/water) 5.1; log S -4.74 (log10 mol/L); vapor pressure -2.426 (log10 mmHg)
* F[P-](F)(F)(F)(F)F.F[P-](F)(F)(F)(F)F.c1ccc([S+](c2ccccc2)c2ccc(Sc3ccc([S+](c4ccccc4)c4ccccc4)cc3)cc2)cc1: MP 237.5 °C; logP (octanol/water) 1; log S -4.059 (log10 mol/L)
* NCCCn1ccnc1 [1H-Imidazole-1-propanamine]: logP (octanol/water) -0.6; vapor pressure -3.046 (log10 mmHg)